Earlier results as cited in patent publication US20060275250A1, “Reactive polymers and copolymers, method of their preparation and their use” (priority 2003, published 2006).

Conditions: clinical testing; cited from earlier work

Substance: N-(2-hydroxypropyl)methacrylamide copolymer doxorubicin [PK1]
- MTD relative to clinically used dose of free doxorubicin (60-80 mg/m^2): four-five times more
- maximum tolerated dose (MTD): 320 mg/m^2
